The numbers were not newly measured in patent US20160304912A1, “A PROCESS FOR PREPARING SUCCINATE ESTER” (MYRIANT CORPORATION, priority 2013, published 2016), which cites them from elsewhere.

The conditions of the data set: at 25 C.

For ammonium dihydrogen phosphate [ADP], the solubility in water was approximately 55%.
